Laboratory results from ChEMBL document CHEMBL5723379, “Affinity On-target Cellular Literature for EUbOPEN Chemogenomic Library” (2024).

By UniProt entry, the sequences of proteins in these tests, tags left out.
UniProt P31645, whole entry: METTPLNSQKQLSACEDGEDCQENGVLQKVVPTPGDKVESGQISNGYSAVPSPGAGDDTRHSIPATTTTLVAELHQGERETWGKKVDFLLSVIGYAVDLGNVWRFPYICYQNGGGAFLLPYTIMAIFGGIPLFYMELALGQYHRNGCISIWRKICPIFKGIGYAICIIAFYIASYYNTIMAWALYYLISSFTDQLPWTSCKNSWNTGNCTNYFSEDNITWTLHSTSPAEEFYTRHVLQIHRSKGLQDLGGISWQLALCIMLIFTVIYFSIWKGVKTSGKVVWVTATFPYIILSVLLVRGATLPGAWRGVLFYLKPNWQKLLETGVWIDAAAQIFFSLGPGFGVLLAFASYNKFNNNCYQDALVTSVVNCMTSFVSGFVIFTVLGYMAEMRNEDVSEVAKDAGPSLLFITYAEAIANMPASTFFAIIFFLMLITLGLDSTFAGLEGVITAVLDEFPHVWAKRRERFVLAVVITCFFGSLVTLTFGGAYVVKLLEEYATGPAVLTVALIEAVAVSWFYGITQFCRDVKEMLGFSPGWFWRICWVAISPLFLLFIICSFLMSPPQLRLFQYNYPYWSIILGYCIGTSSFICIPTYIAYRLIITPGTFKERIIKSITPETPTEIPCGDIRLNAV
UniProt Q15910, whole entry: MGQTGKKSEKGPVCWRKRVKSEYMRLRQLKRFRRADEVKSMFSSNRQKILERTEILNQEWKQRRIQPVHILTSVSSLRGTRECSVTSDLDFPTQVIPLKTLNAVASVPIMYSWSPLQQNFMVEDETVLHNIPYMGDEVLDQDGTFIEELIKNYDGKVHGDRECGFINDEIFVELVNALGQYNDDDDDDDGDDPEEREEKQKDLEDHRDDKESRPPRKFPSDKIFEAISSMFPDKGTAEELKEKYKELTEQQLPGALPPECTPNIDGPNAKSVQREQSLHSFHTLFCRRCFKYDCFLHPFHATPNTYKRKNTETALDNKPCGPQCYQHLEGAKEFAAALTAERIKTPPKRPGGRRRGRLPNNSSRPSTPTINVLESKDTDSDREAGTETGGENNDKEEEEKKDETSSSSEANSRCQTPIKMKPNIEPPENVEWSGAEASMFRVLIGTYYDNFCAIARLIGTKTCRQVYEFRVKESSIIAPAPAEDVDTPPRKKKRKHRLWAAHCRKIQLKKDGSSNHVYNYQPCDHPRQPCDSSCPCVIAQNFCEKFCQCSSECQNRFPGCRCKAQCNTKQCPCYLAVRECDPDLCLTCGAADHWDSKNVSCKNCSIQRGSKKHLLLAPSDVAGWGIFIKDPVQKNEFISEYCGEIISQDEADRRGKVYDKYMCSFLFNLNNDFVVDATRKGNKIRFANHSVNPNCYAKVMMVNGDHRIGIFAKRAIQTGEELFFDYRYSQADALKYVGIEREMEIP

What was measured:
Caspase-6 = molecular target: T1, Caspase-6 (Homo sapiens, UniProt P55212)
T1 sequence (P55212 whole entry): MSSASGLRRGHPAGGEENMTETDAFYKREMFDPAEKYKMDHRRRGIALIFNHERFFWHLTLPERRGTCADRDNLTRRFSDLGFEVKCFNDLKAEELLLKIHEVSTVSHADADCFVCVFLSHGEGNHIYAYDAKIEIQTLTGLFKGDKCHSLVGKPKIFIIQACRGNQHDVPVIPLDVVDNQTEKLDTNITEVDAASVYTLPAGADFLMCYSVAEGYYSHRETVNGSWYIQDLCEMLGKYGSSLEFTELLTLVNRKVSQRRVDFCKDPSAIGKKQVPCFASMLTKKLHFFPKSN

[1] = molecular target: Sodium-dependent serotonin transporter (Homo sapiens, UniProt P31645); assay: Affinity On-target Cellular interaction: (Inhibition of neurotransmitter uptake, [3H]5-HT, MDCK-hNWET6 cells) EUB0002556aCl SLC6A4; assay type: functional, cell-based
[2] = molecular target: T2, Nuclear receptor subfamily 1 group D member 1 (Homo sapiens, UniProt P20393)
T2 sequence (P20393 whole entry): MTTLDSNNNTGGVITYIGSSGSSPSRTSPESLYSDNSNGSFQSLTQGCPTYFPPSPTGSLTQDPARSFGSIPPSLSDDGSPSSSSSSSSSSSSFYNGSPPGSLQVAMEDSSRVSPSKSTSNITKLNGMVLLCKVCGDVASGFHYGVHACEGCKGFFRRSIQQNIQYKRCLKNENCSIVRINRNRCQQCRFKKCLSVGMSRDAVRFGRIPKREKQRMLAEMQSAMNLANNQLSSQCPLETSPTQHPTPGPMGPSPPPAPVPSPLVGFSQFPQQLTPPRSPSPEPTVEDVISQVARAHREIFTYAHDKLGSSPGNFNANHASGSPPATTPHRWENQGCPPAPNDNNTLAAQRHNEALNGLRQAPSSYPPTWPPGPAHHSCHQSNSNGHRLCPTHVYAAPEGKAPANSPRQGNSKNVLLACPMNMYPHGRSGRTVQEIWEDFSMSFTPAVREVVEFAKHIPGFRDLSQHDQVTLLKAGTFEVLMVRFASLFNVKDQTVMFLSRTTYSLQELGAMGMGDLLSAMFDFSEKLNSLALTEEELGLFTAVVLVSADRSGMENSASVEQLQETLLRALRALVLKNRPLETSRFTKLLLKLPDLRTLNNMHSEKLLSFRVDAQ

[3] = molecular target: Histone-lysine N-methyltransferase EZH2 (Homo sapiens, UniProt Q15910); assay: Affinity On-target Cellular interaction: (Protein substrate methylation in WSU-DLCL2 cells) EUB0002228a EZH2; assay type: functional, cell-based, WSUDLCL2

## CC[C@H](C)[C@H](NC(=O)[C@H](CCC(=O)O)NC(=O)[C@@H](NC(C)=O)C(C)C)C(=O)N[C@H](C=O)CC(=O)O
Caspase-6
  IC50: 490 nM

## CN(C)CC(c1ccc(O)cc1)C1(O)CCCCC1 (centres undefined)
[1]
  IC50: 47.3 nM

## CCOC(=O)N1CCC(CN(Cc2ccc(Cl)cc2)Cc2ccc([N+](=O)[O-])s2)C1 (centres undefined) [SR9009]
[2]
  EC50: 6000 nM

## CCN(c1cc(C#CCN2CCOCC2)cc(C(=O)NCc2c(C)cc(C)[nH]c2=O)c1C)[C@H]1CC[C@H](N(C)CCOC)CC1
[3]
  IC50: < 100 nM
